# CycPeptMPDB entries from one study

Values of Wang et al. 2015, doi:10.1016/j.ejmech.2015.04.049, as listed in CycPeptMPDB.

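The data file gives no further conditions (lipid, pH, time, direction or concentration), and values from different papers need not be comparable. Other peptides of the study may be missing here. Peptides that the database sets to -10, its floor, are left out.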

PAMPA measures passive passage through an artificial lipid membrane. Caco-2 values are permeabilities across monolayers of Caco-2 human intestinal cells. P is given in units of 10^-6 cm/s (from log10 values with two decimals); larger means faster passage. A value with < or ≤ is an upper limit. Cells with "–" have no entry in this list.

structure (SMILES) | PAMPA (10^-6 cm/s) | Caco-2 (10^-6 cm/s)
CC(C)C[C@@H]1NC(=O)[C@@H](CC(C)C)NC(=O)[C@@H](CC(C)C)NC(=O)[C@H](Cc2cc3ccccc3[nH]2)NC(=O)[C@@H]2CCCN2C(=O)[C@@H](CC(C)C)NC1=O | 2.5 | 17
CC(C)C[C@@H]1NC(=O)[C@H](C(C)C)NC(=O)[C@H](Cc2cc3ccccc3[nH]2)N(C)C(=O)[C@H](Cc2ccccc2)NC(=O)[C@H](Cc2ccccc2)NC(=O)[C@@H]2CCCN2C1=O | – | 1.7
CC(C)C[C@H]1C(=O)N2CCC[C@H]2C(=O)N[C@@H](Cc2ccccc2)C(=O)N[C@@H](Cc2ccccc2)C(=O)N[C@@H](Cc2cc3ccccc3[nH]2)C(=O)N[C@@H](C(C)C)C(=O)N1C | – | 6.8
CC(C)C[C@@H]1NC(=O)[C@H](Cc2cc3ccccc3[nH]2)NC(=O)[C@H]2CCCN2C(=O)[C@H](CC(C)C)NC(=O)[C@H](CC(C)C)NC(=O)[C@@H](CC(C)C)NC1=O | 1.7 | 5.9
C[C@@H](O)[C@@H]1NC(=O)[C@@H](CCCCN)NC(=O)[C@@H](Cc2cc3ccccc3[nH]2)NC(=O)[C@H](Cc2ccccc2)NC(=O)[C@@H]2CCCN2C(=O)[C@@H](Cc2ccccc2)NC1=O | 0.089 | 0.2
CC(C)C[C@@H]1C(=O)N2CCC[C@H]2C(=O)N[C@@H](Cc2ccc(O)cc2)C(=O)N(C)[C@H](C)C(=O)N(C)CC(=O)N[C@@H](Cc2ccccc2)C(=O)N1C | 0.071 | 0.63
CC(C)C[C@H]1C(=O)N2CCC[C@H]2C(=O)N[C@@H](Cc2ccc(O)cc2)C(=O)N(C)[C@H](C)C(=O)N(C)CC(=O)N[C@@H](Cc2ccccc2)C(=O)N1C | – | < 0.14
CC(C)C[C@@H]1C(=O)N[C@H](CC(C)C)C(=O)N[C@H](CC(C)C)C(=O)N2CCC[C@H]2C(=O)N[C@@H](Cc2ccc(O)cc2)C(=O)N(C)[C@@H](CC(C)C)C(=O)N1C | – | 22
CC(C)C[C@@H]1NC(=O)[C@@H](Cc2ccccc2)NC(=O)CN(C)C(=O)[C@@H](C)N(C)C(=O)[C@H](Cc2ccc(O)cc2)NC(=O)[C@@H]2CCCN2C1=O | – | < 0.14
N=C(N)NCCC[C@@H]1NC(=O)[C@H](Cc2cc3ccccc3[nH]2)NC(=O)[C@H]2CCCN2C(=O)[C@H](CCCCN)NC(=O)[C@H](CCCNC(=N)N)NC(=O)[C@@H](CCCNC(=N)N)NC1=O | – | < 0.14
CC(C)C[C@@H]1NC(=O)[C@@H](CC(C)C)NC(=O)[C@@H](CC(C)C)NC(=O)[C@@H](CC(C)C)NC(=O)[C@H](Cc2cc3ccccc3[nH]2)NC(=O)[C@@H]2CCCN2C1=O | 0.28 | 0.36
C[C@@H]1NC(=O)[C@H](C)N(C)C(=O)[C@H](C)NC(=O)[C@H](C)N(C)C(=O)[C@H](C)NC(=O)[C@@H](C)NC1=O | – | < 0.14
CC(C)C[C@@H]1NC(=O)[C@H](Cc2cc3ccccc3[nH]2)NC(=O)[C@@H]2CCCN2C(=O)[C@@H](CC(C)C)NC(=O)[C@@H](CC(C)C)NC(=O)[C@@H](CC(C)C)NC1=O | 3.3 | 9.5
C[C@@H](O)[C@@H]1NC(=O)[C@H](CCCCN)NC(=O)[C@@H](Cc2cc3ccccc3[nH]2)NC(=O)[C@H](Cc2ccccc2)NC(=O)[C@@H]2CCCN2C(=O)[C@H](Cc2ccccc2)NC1=O | 0.079 | 0.93
CC(C)C[C@@H]1NC(=O)[C@H](C(C)C)NC(=O)[C@H](Cc2cc3ccccc3[nH]2)NC(=O)[C@H](Cc2ccccc2)NC(=O)[C@H](Cc2ccccc2)NC(=O)[C@@H]2CCCN2C1=O | 0.37 | 0.24
CC(C)C[C@@H]1NC(=O)[C@H](CC(C)C)N(C)C(=O)[C@@H](CC(C)C)N(C)C(=O)[C@H](CC(C)C)N(C)C(=O)[C@H](Cc2ccc(O)cc2)N(C)C(=O)[C@H]2CCCN2C1=O | 1.5 | 16
CC[C@H](C)[C@@H]1NC(=O)[C@H](Cc2cc3ccccc3[nH]2)NC(=O)[C@H]2CCCN2C(=O)[C@H]([C@@H](C)CC)NC(=O)[C@H]([C@@H](C)CC)NC(=O)[C@@H](CC(C)C)NC1=O | 0.41 | 3.1
CC(C)C[C@@H]1NC(=O)[C@H](Cc2cc3ccccc3[nH]2)NC(=O)[C@@H]2CCCN2C(=O)[C@H]2CCCN2C(=O)[C@@H](CC(C)C)NC(=O)[C@H](CC(C)C)NC1=O | 0.19 | 0.21

A selection of 3 entries from above:

structure (SMILES)	PAMPA (10^-6 cm/s)	Caco-2 (10^-6 cm/s)
CC(C)C[C@@H]1NC(=O)[C@H](Cc2cc3ccccc3[nH]2)NC(=O)[C@@H]2CCCN2C(=O)[C@H]2CCCN2C(=O)[C@@H](CC(C)C)NC(=O)[C@H](CC(C)C)NC1=O	0.19	0.21
C[C@@H]1NC(=O)[C@H](C)N(C)C(=O)[C@H](C)NC(=O)[C@H](C)N(C)C(=O)[C@H](C)NC(=O)[C@@H](C)NC1=O	–	< 0.14
CC(C)C[C@@H]1NC(=O)[C@H](CC(C)C)N(C)C(=O)[C@@H](CC(C)C)N(C)C(=O)[C@H](CC(C)C)N(C)C(=O)[C@H](Cc2ccc(O)cc2)N(C)C(=O)[C@H]2CCCN2C1=O	1.5	16